# Measurements taken from US5256548A, “Antiviral antibiotic BU-4344V” (Bristol-Myers Squibb Company, priority 1992, dated 1993).
# Assays:
# [1] = tested on: Madin Darby canine kidney (MDCK) cells
smiles,measurement,setting,value
"NC(=O)c1ncn([C@@H]2O[C@H](CO)[C@@H](O)[C@H]2O)n1 [Ribavirin, reference compound]",MTD (Minimal Toxic Dose),MDCK Cells,> 100
same,TD50 (concentration exhibiting 50% cytotoxicity),[1],> 100
